PubChem BioAssay AID1745844 (Carcinogenic Potency Database (CPDB), 2022)

Tested on: rodent lifetime carcinogenesis bioassay, tumor incidence TD50
Experiment: chronic cancer bioassays in animals – CPDB, compiled studies (AID 1745844)
Details: in feed

What does the source list for `O=C1C2CC=CCC2C(=O)N1SC(Cl)(Cl)C(Cl)Cl` (stereo not drawn)?
TD50 (mouse, strain B6C3F1, females, site: forestomach, lesion: several types, types named in the paper, dosed 93 weeks, study length 104 weeks): 3140 mg/kg/day; TD50 (mouse, strain B6C3F1, females, site: forestomach, lesion: squamous-cell carcinoma, dosed 93 weeks, study length 104 weeks): 22600 mg/kg/day; TD50 (mouse, strain B6C3F1, females, site: heart, lesion: hemangioendothelioma, dosed 93 weeks, study length 104 weeks): 1400 mg/kg/day; TD50 (mouse, strain B6C3F1, females, site: liver, lesion: hepatocellular carcinoma, dosed 93 weeks, study length 104 weeks): 398 mg/kg/day; TD50 (mouse, strain B6C3F1, females, site: liver, lesion: several types, types named in the paper, dosed 93 weeks, study length 104 weeks): 89.4 mg/kg/day; TD50 (mouse, strain B6C3F1, females, site: lung, lesion: adenocarcinoma, dosed 93 weeks, study length 104 weeks): 134000 mg/kg/day; TD50 (mouse, strain B6C3F1, females, site: small intestine, lesion: adenocarcinoma, dosed 93 weeks, study length 104 weeks): 512 mg/kg/day; TD50 (mouse, strain B6C3F1, females, site: small intestine, lesion: several types, types named in the paper, dosed 93 weeks, study length 104 weeks): 359 mg/kg/day; TD50 (mouse, strain B6C3F1, females, site: spleen, lesion: hemangioma, dosed 93 weeks, study length 104 weeks): 1470 mg/kg/day; TD50 (mouse, strain B6C3F1, males, site: forestomach, lesion: several types, types named in the paper, dosed 96 weeks, study length 104 weeks): 1810 mg/kg/day; TD50 (mouse, strain B6C3F1, males, site: forestomach, lesion: squamous-cell carcinoma, dosed 96 weeks, study length 104 weeks): 6190 mg/kg/day; TD50 (mouse, strain B6C3F1, males, site: heart, lesion: hemangioendothelioma, dosed 96 weeks, study length 104 weeks): 647 mg/kg/day; TD50 (mouse, strain B6C3F1, males, site: liver, lesion: hepatocellular carcinoma, dosed 96 weeks, study length 104 weeks): 138 mg/kg/day; TD50 (mouse, strain B6C3F1, males, site: liver, lesion: several types, types named in the paper, dosed 96 weeks, study length 104 weeks): 144 mg/kg/day; TD50 (mouse, strain B6C3F1, males, site: small intestine, lesion: adenocarcinoma, dosed 96 weeks, study length 104 weeks): 151 mg/kg/day; TD50 (mouse, strain B6C3F1, males, site: small intestine, lesion: several types, types named in the paper, dosed 96 weeks, study length 104 weeks): 137 mg/kg/day; TD50 (mouse, strain B6C3F1, males, site: spleen, lesion: hemangioendothelioma, dosed 96 weeks, study length 104 weeks): 79100 mg/kg/day; TD50 (mouse, strain B6C3F1, males, site: spleen, lesion: hemangioma, dosed 96 weeks, study length 104 weeks): 1570 mg/kg/day; TD50 (mouse, strain B6C3F1, males, site: spleen, lesion: several types, types named in the paper, dosed 96 weeks, study length 104 weeks): 2560 mg/kg/day; TD50 (mouse, strain Charles River CD1, females, site: all sites, lesion: hemangiosarcoma, dosed 104 weeks, study length 110 weeks): 3130 mg/kg/day; TD50 (mouse, strain Charles River CD1, females, site: all sites, lesion: lymphosarcoma, dosed 104 weeks, study length 110 weeks): 1490 mg/kg/day; TD50 (mouse, strain Charles River CD1, males, site: Harderian gland, lesion: adenoma, dosed 104 weeks, study length 110 weeks): 298 mg/kg/day; TD50 (mouse, strain Charles River CD1, males, site: all sites, lesion: hemangiosarcoma, dosed 104 weeks, study length 110 weeks): 3310 mg/kg/day; TD50 (mouse, strain Charles River CD1, males, site: all sites, lesion: lymphosarcoma, dosed 104 weeks, study length 110 weeks): 1440 mg/kg/day; TD50 (rat, strain Charles River CD (Sprague-Dawley), females, site: kidney, lesion: renal-cell carcinoma, dosed 104 weeks, study length 104 weeks): 776 mg/kg/day; TD50 (rat, strain Charles River CD (Sprague-Dawley), females, site: kidney, lesion: several types, types named in the paper, dosed 104 weeks, study length 104 weeks): 916 mg/kg/day; TD50 (rat, strain Charles River CD (Sprague-Dawley), females, site: liver, lesion: hepatocellular carcinoma, dosed 104 weeks, study length 104 weeks): 781 mg/kg/day; TD50 (rat, strain Charles River CD (Sprague-Dawley), females, site: liver, lesion: neoplastic nodule, dosed 104 weeks, study length 104 weeks): 124 mg/kg/day; TD50 (rat, strain Charles River CD (Sprague-Dawley), females, site: liver, lesion: several types, types named in the paper, dosed 104 weeks, study length 104 weeks): 120 mg/kg/day; TD50 (rat, strain Charles River CD (Sprague-Dawley), females, site: mammary gland, lesion: fibroadenoma, dosed 104 weeks, study length 104 weeks): 71.6 mg/kg/day; TD50 (rat, strain Charles River CD (Sprague-Dawley), males, site: kidney, lesion: renal-cell adenoma, dosed 104 weeks, study length 104 weeks): 733 mg/kg/day; TD50 (rat, strain Charles River CD (Sprague-Dawley), males, site: kidney, lesion: renal-cell carcinoma, dosed 104 weeks, study length 104 weeks): 426 mg/kg/day; TD50 (rat, strain Charles River CD (Sprague-Dawley), males, site: kidney, lesion: several types, types named in the paper, dosed 104 weeks, study length 104 weeks): 272 mg/kg/day; TD50 (rat, strain F344/DuCrj, females, site: kidney, lesion: renal-cell adenoma, dosed 104 weeks, study length 112 weeks): 276 mg/kg/day; TD50 (rat, strain F344/DuCrj, females, site: liver, lesion: hepatocellular carcinoma, dosed 104 weeks, study length 112 weeks): 1010 mg/kg/day; TD50 (rat, strain F344/DuCrj, females, site: liver, lesion: hyperplastic nodule, dosed 104 weeks, study length 112 weeks): 64.4 mg/kg/day; TD50 (rat, strain F344/DuCrj, females, site: thyroid gland, lesion: c-cell adenoma, dosed 104 weeks, study length 112 weeks): 353 mg/kg/day; TD50 (rat, strain F344/DuCrj, males, site: kidney, lesion: renal-cell adenoma, dosed 104 weeks, study length 112 weeks): 30.3 mg/kg/day; TD50 (rat, strain F344/DuCrj, males, site: kidney, lesion: renal-cell carcinoma, dosed 104 weeks, study length 112 weeks): 345 mg/kg/day; TD50 (rat, strain F344/DuCrj, males, site: liver, lesion: hyperplastic nodule, dosed 104 weeks, study length 112 weeks): 104 mg/kg/day; TD50 (rat, strain Fischer 344, males, site: kidney, lesion: several types, types named in the paper, dosed 102 weeks, study length 104 weeks): 504 mg/kg/day; TD50 (rat, strain Fischer 344, males, site: kidney, lesion: tubular adenoma, dosed 102 weeks, study length 104 weeks): 5010 mg/kg/day; TD50 (rat, strain Fischer 344, males, site: kidney, lesion: tubular carcinoma, dosed 102 weeks, study length 104 weeks): 570 mg/kg/day
